Key:
[1] = target: T1, Non-receptor tyrosine-protein kinase TYK2 (Homo sapiens, UniProt P29597); format: cell-based, Sf9
[2] = target: T2, Tyrosine-protein kinase JAK2 (Homo sapiens, UniProt O60674)
[3] = target: T2, Tyrosine-protein kinase JAK2; remark: listed apart in the source
[4] = target: T3, Tyrosine-protein kinase JAK3 (Homo sapiens, UniProt P52333)
T3 sequence (P52333 whole entry): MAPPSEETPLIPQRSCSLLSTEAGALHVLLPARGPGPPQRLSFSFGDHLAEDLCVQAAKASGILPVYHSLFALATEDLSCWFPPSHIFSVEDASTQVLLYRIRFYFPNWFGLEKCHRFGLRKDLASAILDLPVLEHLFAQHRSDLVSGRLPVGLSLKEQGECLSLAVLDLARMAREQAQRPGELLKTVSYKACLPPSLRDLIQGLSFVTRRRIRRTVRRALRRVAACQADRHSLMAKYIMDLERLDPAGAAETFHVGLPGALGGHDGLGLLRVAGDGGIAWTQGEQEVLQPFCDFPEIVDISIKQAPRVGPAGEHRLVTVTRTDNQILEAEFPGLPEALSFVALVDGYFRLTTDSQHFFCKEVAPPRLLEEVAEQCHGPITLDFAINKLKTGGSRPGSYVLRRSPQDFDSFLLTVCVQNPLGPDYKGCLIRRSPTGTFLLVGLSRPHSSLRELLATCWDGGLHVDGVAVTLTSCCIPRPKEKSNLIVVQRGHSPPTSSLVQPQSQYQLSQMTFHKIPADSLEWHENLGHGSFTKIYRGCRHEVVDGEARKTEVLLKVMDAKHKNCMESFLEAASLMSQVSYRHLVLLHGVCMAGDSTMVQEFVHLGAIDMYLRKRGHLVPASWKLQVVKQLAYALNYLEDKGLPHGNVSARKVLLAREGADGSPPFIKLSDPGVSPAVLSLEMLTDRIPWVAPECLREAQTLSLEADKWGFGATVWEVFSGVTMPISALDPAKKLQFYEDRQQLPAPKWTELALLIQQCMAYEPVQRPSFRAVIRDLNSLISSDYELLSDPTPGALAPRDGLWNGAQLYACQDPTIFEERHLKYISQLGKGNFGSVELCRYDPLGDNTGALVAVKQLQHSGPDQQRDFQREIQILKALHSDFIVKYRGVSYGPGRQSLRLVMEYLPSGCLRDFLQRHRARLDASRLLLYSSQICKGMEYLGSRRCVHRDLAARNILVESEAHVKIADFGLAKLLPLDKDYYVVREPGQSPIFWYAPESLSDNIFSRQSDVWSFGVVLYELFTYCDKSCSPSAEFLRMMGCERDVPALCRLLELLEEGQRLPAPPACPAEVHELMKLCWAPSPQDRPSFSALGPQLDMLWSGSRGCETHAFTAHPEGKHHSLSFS

Sequences of proteins named here, by UniProt entry; tags and fusion partners are left off. A change or cut given only in a name is not applied to a line headed by its entry.
UniProt P29597: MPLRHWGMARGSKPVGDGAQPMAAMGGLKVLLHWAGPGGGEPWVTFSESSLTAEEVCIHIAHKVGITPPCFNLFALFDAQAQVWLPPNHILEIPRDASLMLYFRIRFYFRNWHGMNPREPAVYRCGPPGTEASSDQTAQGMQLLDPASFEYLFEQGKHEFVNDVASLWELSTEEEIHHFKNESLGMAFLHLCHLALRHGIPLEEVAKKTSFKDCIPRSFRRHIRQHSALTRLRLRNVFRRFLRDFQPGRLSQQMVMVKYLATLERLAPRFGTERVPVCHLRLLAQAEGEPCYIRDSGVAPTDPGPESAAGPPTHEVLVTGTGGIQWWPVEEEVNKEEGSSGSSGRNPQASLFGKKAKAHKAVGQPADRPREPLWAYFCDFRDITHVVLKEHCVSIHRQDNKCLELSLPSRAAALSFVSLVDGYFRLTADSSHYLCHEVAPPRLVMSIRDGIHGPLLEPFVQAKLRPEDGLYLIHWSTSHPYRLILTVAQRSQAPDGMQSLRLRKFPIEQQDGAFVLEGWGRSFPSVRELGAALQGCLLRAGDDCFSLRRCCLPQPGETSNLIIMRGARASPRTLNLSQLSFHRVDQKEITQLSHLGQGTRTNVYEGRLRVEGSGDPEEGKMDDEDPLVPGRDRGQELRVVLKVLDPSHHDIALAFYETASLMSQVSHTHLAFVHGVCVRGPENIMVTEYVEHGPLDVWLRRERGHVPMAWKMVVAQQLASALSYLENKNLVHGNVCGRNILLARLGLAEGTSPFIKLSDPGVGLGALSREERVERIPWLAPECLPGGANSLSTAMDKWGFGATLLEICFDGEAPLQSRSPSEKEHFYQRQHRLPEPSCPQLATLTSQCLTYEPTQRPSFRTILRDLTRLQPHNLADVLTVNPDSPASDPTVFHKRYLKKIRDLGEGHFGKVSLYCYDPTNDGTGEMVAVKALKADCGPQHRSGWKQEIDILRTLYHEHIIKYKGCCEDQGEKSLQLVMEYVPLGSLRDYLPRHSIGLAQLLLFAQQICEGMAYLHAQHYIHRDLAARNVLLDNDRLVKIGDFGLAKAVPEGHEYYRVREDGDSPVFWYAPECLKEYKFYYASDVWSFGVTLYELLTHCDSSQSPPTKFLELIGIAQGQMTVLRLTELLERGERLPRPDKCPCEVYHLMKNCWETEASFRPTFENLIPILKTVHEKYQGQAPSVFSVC
UniProt O60674: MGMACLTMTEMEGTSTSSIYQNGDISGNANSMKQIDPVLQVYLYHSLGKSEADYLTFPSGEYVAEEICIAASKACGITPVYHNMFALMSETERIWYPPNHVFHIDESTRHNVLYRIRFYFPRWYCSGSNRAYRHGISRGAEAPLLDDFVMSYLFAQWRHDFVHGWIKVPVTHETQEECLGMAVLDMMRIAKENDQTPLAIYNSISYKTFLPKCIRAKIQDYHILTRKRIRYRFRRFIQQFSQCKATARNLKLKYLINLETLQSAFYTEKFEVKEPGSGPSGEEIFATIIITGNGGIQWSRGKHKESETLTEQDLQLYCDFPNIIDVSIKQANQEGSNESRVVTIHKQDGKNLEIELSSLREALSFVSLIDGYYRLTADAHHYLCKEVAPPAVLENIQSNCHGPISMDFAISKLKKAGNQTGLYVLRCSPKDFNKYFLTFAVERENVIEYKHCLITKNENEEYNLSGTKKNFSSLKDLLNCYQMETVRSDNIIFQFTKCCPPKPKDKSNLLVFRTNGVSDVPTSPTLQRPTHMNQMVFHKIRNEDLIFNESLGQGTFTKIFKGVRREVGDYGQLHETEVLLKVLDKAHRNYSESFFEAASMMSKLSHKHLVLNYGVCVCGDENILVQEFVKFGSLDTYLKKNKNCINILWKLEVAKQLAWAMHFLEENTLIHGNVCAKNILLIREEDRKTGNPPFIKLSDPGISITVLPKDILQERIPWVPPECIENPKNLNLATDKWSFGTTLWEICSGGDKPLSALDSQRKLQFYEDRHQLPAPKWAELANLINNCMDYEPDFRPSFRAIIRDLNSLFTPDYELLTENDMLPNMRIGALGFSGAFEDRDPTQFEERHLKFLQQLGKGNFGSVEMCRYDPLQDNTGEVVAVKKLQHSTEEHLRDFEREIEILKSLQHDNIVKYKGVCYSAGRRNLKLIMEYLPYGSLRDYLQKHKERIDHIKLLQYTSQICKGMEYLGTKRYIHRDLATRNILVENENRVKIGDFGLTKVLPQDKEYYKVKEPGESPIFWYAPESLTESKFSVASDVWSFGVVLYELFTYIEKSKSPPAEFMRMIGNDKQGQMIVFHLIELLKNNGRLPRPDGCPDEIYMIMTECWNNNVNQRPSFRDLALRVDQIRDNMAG

[5] = target: T1, Non-receptor tyrosine-protein kinase TYK2

For c1nc2nc(Nc3ccc(N4CCOCC4)cc3)nc(NC3CCCCC3)c2[nH]1 [REVERSINE], the IC50 [1] was 120 nM, the IC50 [2] was 680 nM and the IC50 [3] was 680 nM. For the same compound, the IC50 [4] was 300 nM and the IC50 [5] was 120 nM.
